Values quoted from earlier work, collected in patent EP0935964A1, “Pharmaceutical compositions containing NSAIDs and piperine” (PANACEA BIOTEC LIMITED, priority 1998, dated 1999).

Details: in vivo; cited from earlier work

In the case of `CS(=O)(=O)Nc1ccc([N+](=O)[O-])cc1Oc1ccccc1` [Nimesulide, N-(4-nitro, 2-phenoxyphenyl) methanesulfonamide], the “metabolites excreted in the faeces” value is listed as roughly 20% and the “metabolites excreted in the urine” value is listed as roughly 70%.
